From patent US10946012B2, “Methods for inducing tumor regression, inhibiting tumor growth, and inducing apoptosis in breast tumors with geranylgeranyltransferase I inhibitors” (H. Lee Moffitt Cancer Center and Research Institute, Inc., priority 2009, dated 2021) come the findings set out here.

The target of this test is GGTase I (Homo sapiens, UniProt P49354+P53609). Put plainly: In vitro GGTase I activity assay ([3H]GGPP transfer to H-Ras-CVLL). To be noted: for IC50: read-out: IC50, inhibition of GGTase I activity, H-Ras-CVLL, [3H]GGPP. Here is the method:
A brief discussion of exemplary materials and methods follows. In vitro FTase and GGTase I activity assays were performed. GGTase I and FTase activities from 60,000×g supernatants of human Burkitt's lymphoma (Daudi) cells (American Type Culture Collection (ATCC), Rockville, Md.) were assayed as described previously.

`Cc1[nH]cnc1CN1CCN(C(=O)N[C@@H](CC(C)C)C(=O)O)[C@@H](Cc2ccc(F)cc2)C1=O`: the IC50 came to 7.1 nM.
Turning to `Cc1[nH]cnc1CN1CCN(C(=O)N[C@@H](CC(C)C)C(=O)O)[C@@H](Cc2cccc3ccccc23)C1=O`, the “selectivity towards inhibition of GGTase I versus FTase” value was 340 fold and the IC50 was 14 nM.

The IC50 is the concentration that gives 50% inhibition.
